This is a selection; strong and weak results do not stand in their true shares. Records with an inconclusive call do not appear. Activity calls are given as the source filed them. Unless noted, calls come from the whole dose curve; as a rule, active = well fitted curve in the direction sought with a large enough effect; inconclusive = small, poorly fitted or top-dose-only effect, or another doubt; inactive = no such curve, though single readings can be large; an effect the other way counts as inactive or inconclusive.

Amino acid sequences for entries named in this document (tags omitted).
UniProt P51449, whole entry: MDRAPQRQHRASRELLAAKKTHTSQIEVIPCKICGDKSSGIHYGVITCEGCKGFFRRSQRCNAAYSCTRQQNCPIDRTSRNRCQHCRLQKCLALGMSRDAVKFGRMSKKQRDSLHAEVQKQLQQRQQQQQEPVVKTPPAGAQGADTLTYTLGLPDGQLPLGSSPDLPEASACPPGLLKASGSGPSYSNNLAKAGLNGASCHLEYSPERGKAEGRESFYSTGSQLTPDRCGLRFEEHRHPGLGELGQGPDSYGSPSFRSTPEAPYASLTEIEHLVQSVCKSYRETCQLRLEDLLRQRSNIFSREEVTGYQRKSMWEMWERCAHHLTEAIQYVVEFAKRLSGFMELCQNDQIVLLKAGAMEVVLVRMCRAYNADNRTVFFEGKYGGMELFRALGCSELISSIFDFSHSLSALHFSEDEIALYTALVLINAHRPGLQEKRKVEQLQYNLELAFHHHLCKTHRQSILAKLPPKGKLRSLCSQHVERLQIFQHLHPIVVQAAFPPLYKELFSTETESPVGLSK

Our source for the Potency and activity, negative = inhibition values is PubChem BioAssay (NCATS).

A short description of assay [1]: Primary qHTS for inhibitors of nuclear receptor binding SET domain protein 2 (NSD2) in an isogenic RCH-ACV NSD2 p.E1099K mutant (9B) (AID 1645876). Note: nearly all actives have a fitted effect of over 70% in size. Particulars: RCH-ACV NSD2 E1099K (9B) viability, CellTiter-Glo, 72 h. For orientation: qHTS replaces the single test concentration by a dilution series.
A short description of assay [2]: Primary qHTS for inhibitors of nuclear receptor binding SET domain protein 2 (NSD2) in an RCH-ACV wild type WT cells (2C) (AID 1645877). Note: nearly all actives have a fitted effect of over 70% in size. Conditions: RCH-ACV (leukaemia line) NSD2 WT (2C) viability, CellTiter-Glo, 72 h.
Assay [3] can be described thus: Cell Viability - N2a (AID 540).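 Note: cells exposed to compound for 40 h at 37 °C; nearly all actives have a fitted effect of over 45% in size.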 Particulars: N2a mouse neuroblastoma cell viability. In short, it runs like this: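 Luminescent ATP signal (CellTiter-Glo, 20 min at room temperature) served as the viability read-out after N2a cells were treated with compounds for 40 hours at 37 °C. Concentration-response data were fitted to the Hill equation for AC50.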
A short description of assay [4]: MultiTox-Fluor Cytotoxicity Assay - LYMP1-002 - Dead Cells (AID 960). Note: nearly all actives have a fitted effect of over 60% in size. Particulars: LYMP1-002 lymphoblastoid cells, dead-cell protease fluorescence. The method in brief: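 LYMP1-002 cells 2500/well; 5 hr 37 C pre-incubation; compound 16 hr 37 C; MultiTox-Fluor reagent 60 min RT; dead-cell fluor Ex/Em 485/520. Norm. to DMSO (0%) vs 15 uM tetraoctylammonium bromide (100%); Hill AC50.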

A short description of assay [5]: Cell Viability - LYMP1-003 - Assay at 40 hr (AID 964). Note: nearly all actives have a fitted effect of over 60% in size. Conditions: LYMP1-003 lymphoblastoid viability. The method in brief:
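Cells were seeded at 2500 per well and incubated 5 hr at 37 C. Compounds were added across a concentration series and left 40 hr at 37 C. CellTiter-Glo was added for 30 min at room temperature before luminescence reading.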

Assay [6] in a line: Cell Viability - LYMP2-011 (AID 969). Note: nearly all actives have a fitted effect of over 60% in size. Particulars: LYMP2-011 lymphoblastoid cells viability. In short, it runs like this:
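2500 cells/well, 5 hr 37 C; compound added, 24 hr 37 C; CellTiter-Glo 30 min RT; luminescence. qHTS concentration-response, Hill-equation AC50. Tetraoctylammonium bromide positive control.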

Assay [7] in a line: Cell Viability - LYMP2-013 (AID 970). Note: nearly all actives have a fitted effect of over 55% in size. Conditions: LYMP2-013 lymphoblastoid cells viability. In short, it runs like this: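 qHTS; 2500 lymphoblastoid cells/well; 5 hr 37 C settle; cpd 24 hr 37 C; CellTiter-Glo, 30 min RT; luminescence. AC50 = Hill fit.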
The nature of assay [8]: Cell Viability - LYMP2-017 (AID 972). Note: nearly all actives have a fitted effect of over 55% in size. Conditions: LYMP2-017 lymphoblastoid cell viability. In short, it runs like this:
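2500 cells/well, 5 h 37 C; cpd 24 h 37 C in complete medium; CellTiter-Glo, 30 min RT; luminescence (ATP). AC50 via Hill fit, qHTS.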

Assay [9] can be described thus: Cell Viability - LYMP2-019 (AID 973). Note: nearly all actives have a fitted effect of over 55% in size. Conditions: LYMP2-019 lymphoblastoid cell line viability. In short, it runs like this: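 Luminescent ATP read-out (CellTiter-Glo, 30 min room temperature) served as the viability measure after 24 hr treatment of lymphoblastoid cells at 37 C. Concentration-response data were fitted to the Hill equation for AC50.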
The nature of assay [10]: Cell Viability - LYMP2-023 (AID 975). Note: nearly all actives have a fitted effect of over 55% in size. Particulars: LYMP2-023 lymphoblastoid cell viability. In short, it runs like this: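 2500 cells/well, 5 hr 37 C; cpd 24 hr 37 C; CellTiter-Glo, 30 min RT; luminescence. qHTS conc-response, Hill fit -> AC50. Pos ctrl tetraoctylammonium bromide.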
The nature of assay [11]: Cell Viability - LYMP2-025 (AID 976). Particulars: LYMP2-025 lymphoblastoid cell viability. In short, it runs like this:
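Seed 2500 LYMP2-025 cells/well; 5 hr at 37 C; add compound; 24 hr at 37 C; add CellTiter-Glo; 30 min RT; read luminescence. AC50 from Hill-modelled concentration-response.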

The nature of assay [12]: Cell Viability - LYMP2-002 (AID 977).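 Note: compound exposure lasted 24 h at 37 °C.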 Conditions: LYMP2-002 lymphoblastoid cell viability, qHTS. In short, it runs like this:
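Human lymphoblastoid LYMP2-002 cells, 2500 per well, exposed to compounds for 24 h at 37 C in complete medium; viability read as intracellular ATP by CellTiter-Glo luminescence, AC50 from Hill fits.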

The nature of assay [13]: Cell Viability - LYMP2-026 (AID 989). Note: nearly all actives have a fitted effect of over 50% in size. Conditions: LYMP2-026 lymphoblastoid cell viability, qHTS. In short, it runs like this:
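Luminescent ATP signal (CellTiter-Glo, 30 min room temperature) measures viable lymphoblastoid cells after 24 hr compound treatment at 37 C. Decreased ATP reflects acute toxicity; AC50 values come from Hill-equation modeling.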

Assay [14] is described as follows: Cell Viability - LYMP1-002 - Assay at 24 hr (AID 993). Conditions: LYMP1-002 lymphoblastoid cells viability. In short, it runs like this:
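Cells plated 2500/well, 5 hr 37 C; compounds added, 24 hr 37 C; CellTiter-Glo added, 30 min RT; luminescence read. Tetraoctylammonium bromide positive control. Hill-equation AC50.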

A short description of assay [15]: qHTS assay for small molecule activators of the p53 signaling pathway (AID 651743; active = well fitted activation curve with a large enough effect in the signal ratio, not every such curve was filed as active; the % refers to the signal ratio). Conditions: HCT-116 p53RE-bla, beta-lactamase FRET ratio, 16 h. In short, it runs like this:
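p53RE-bla HCT-116 cells carrying a beta-lactamase reporter under p53 response elements were exposed to compounds for 16 hours at 37 C. Reporter activity read as fluorescence after 2 hours at room temperature with LiveBLAzer B/G FRET substrate.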

The target in assay [16] is Nuclear receptor ROR-gamma (Homo sapiens) (UniProt P51449). Nature of the assay: qHTS assay for small molecule antagonists of the retinoid-related orphan receptor gamma (ROR-gamma) signaling pathway (AID 651802). Note: nearly all actives have a fitted effect of over 60% in size. Particulars: ROR-gamma antagonist cell reporter assay.
Assay [17] can be described thus: qHTS assay for small molecule antagonists of the retinoid-related orphan receptor gamma (ROR-gamma) signaling pathway - cell viability counter screen (AID 720652; active = well fitted curve in the direction sought with a large enough effect in the repeat runs; an effect the other way counts as inactive or inconclusive;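 note: compound exposure lasted 16 hr before ATP read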). Particulars: RORgamma reporter cell line viability counter screen.
Assay [18] is described as follows: qHTS of pediatric cancer cell lines to identify multiple opportunities for drug repurposing: Primary screen for A673 cells (AID 1347092). Note: nearly all actives have a fitted effect of over 45% in size. Conditions: A673 Ewing sarcoma viability, CellTiter-Glo ATP luminescence, 48 h. In short, it runs like this:
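Cells are plated, rested 5 h, dosed by pintool, incubated 48 h, then lysed with CellTiter-Glo and read by luminescence. DMSO is the neutral control; bortezomib at 2.3 uM final is the positive control.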

Assay [19] can be described thus: qHTS of pediatric cancer cell lines to identify multiple opportunities for drug repurposing: Primary screen for SK-N-MC cells (AID 1347093). Conditions: SK-N-MC viability, CellTiter-Glo luminescence, 48 h.
A short description of assay [20]: qHTS of pediatric cancer cell lines to identify multiple opportunities for drug repurposing: Confirmatory screen for NB1643 cells (AID 1347109). Note: nearly all actives have a fitted effect of over 45% in size. Particulars: NB1643 neuroblastoma cell viability. The method in brief: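 Viability after 48 h compound treatment at 37C, 500-1,000 cells/well, read as ATP luminescence with CellTiter-Glo. Primary screens used 11-point (MIPE, 0.78 nM-46 µM) or 8-point (NPC, 0.59 nM-46 µM) final concentrations; follow-up screens used 11-point dilutions.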

Assay [21] can be described thus: qHTS of pediatric cancer cell lines to identify multiple opportunities for drug repurposing: Confirmatory screen for A673 cells (AID 1347110). Note: nearly all actives have a fitted effect of over 65% in size. Particulars: A673 Ewing sarcoma cell viability. In short, it runs like this: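 Cells plated at 500-1,000/well were treated five hours later with multi-point dilutions up to 46 µM final. After two days, CellTiter-Glo was added and luminescence read.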

The nature of assay [22]: qHTS of pediatric cancer cell lines to identify multiple opportunities for drug repurposing: Confirmatory screen for DAOY cells (AID 1347114). Note: nearly all actives have a fitted effect of over 65% in size. Conditions: DAOY medulloblastoma cells viability, cytotoxicity qHTS. The method in brief:
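Viability measured as metabolically active cells via CellTiter-Glo luminescence following 48 hours of compound exposure, 11-point dilutions in confirmatory testing. 500-1,000 cells/well plated 5 hours before dosing; controls were DMSO and 2.3 µM bortezomib.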

Assay [23] in a line: qHTS of pediatric cancer cell lines to identify multiple opportunities for drug repurposing: Confirmatory screen for TC32 cells (AID 1347118). Note: nearly all actives have a fitted effect of over 65% in size. Conditions: TC32 Ewing sarcoma cells viability qHTS. In short, it runs like this:
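qHTS, TC32, 48 h drug treatment, CellTiter-Glo luminescence as a proxy for metabolically active cells; primary top concentration 46 µM (MIPE 11-pt, NPC 8-pt); confirmatory 11-pt.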

Assay [24] can be described thus: Quantitative High-Throughput drug screen in 47 multiple myeloma cell lines against the NCATS MIPE library collection: EJM_DSMZ cell viability assay (AID 1918926; note: nearly all actives have a fitted effect of over 30% in size). Particulars: EJM myeloma cell viability, CellTiter-Glo ATP, 48 h. In short, it runs like this:
(§1)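 qHTS of the MIPE 4.0 collection: 500 myeloma cells/well, 48 h drug exposure at 37C in 5% CO2, then CellTiter-Glo for 5 min at room temperature before luminescence reading.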

A short description of assay [25]: Quantitative High-Throughput drug screen in 47 multiple myeloma cell lines against the NCATS MIPE library collection: Karpas25_ECACC cell viability assay (AID 1918968; note: nearly all actives have a fitted effect of over 35% in size). Conditions: Karpas25 myeloma viability, CellTiter-Glo ATP, 48 h. The method in brief: as §1
On the technique in general: Cellular ATP, detected with luciferase, serves as a proxy for viable cell number.

A short description of assay [26]: Quantitative High-Throughput drug screen in 47 multiple myeloma cell lines against the NCATS MIPE library collection: KMS20_JCRB cell viability assay (AID 1918973). Note: nearly all actives have a fitted effect of over 45% in size. Conditions: CellTiter-Glo ATP, 48 h. In short, it runs like this:
as §1

Assay [27] is described as follows: Quantitative High-Throughput drug screen in 47 multiple myeloma cell lines against the NCATS MIPE library collection: XG6_PLB cell viability assay (AID 1919865). Note: nearly all actives have a fitted effect of over 40% in size. Particulars: XG6 myeloma viability, CellTiter-Glo ATP luminescence, 48 h. The method in brief: (§2)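 500 cells/well per myeloma line exposed to pinned MIPE 4.0 compounds for 48 h at 37 °C, 5% CO2. Viability read as ATP by CellTiter-Glo luminescence, normalised to DMSO-only (100%) and media-only (0%) wells.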

A short description of assay [28]: Quantitative High-Throughput drug screen in 47 multiple myeloma cell lines against the NCATS MIPE library collection: XG1_PLB cell viability assay (AID 1919866). Note: nearly all actives have a fitted effect of over 35% in size. Conditions: CellTiter-Glo ATP, 48 h. In short, it runs like this: as §2
Assay [29] can be described thus: Quantitative High-Throughput drug screen in 47 multiple myeloma cell lines against the NCATS MIPE library collection: UTMC2_PLB cell viability assay (AID 1919868). Note: nearly all actives have a fitted effect of over 55% in size. Conditions: CellTiter-Glo ATP luminescence, 48 h. The method in brief: as §2
Assay [30] can be described thus: Quantitative High-Throughput drug screen in 47 multiple myeloma cell lines against the NCATS MIPE library collection: PCM6_Riken cell viability assay (AID 1919870). Note: nearly all actives have a fitted effect of over 30% in size. Conditions: CellTiter-Glo ATP, 48 h. In short, it runs like this:
as §2

Assay [31] concerns CP201. Nature of the assay: qHTS profiling for inhibitors of Plasmodium falciparum proliferation (AID 504749).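 For activity, negative = inhibition: 0% = DMSO vehicle and full inhibition = artemisinin control.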 Note: nearly all actives have a fitted effect of over 60% in size. Conditions: P. falciparum in erythrocytes, SYBR Green DNA, 72 h; at 28.7 µM (top of the series). In short, it runs like this: (§3)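 P. falciparum-infected erythrocytes (0.3% parasitemia, 2.5% hematocrit) incubated with compound 72 h at 37 C, 5% CO2. Parasite DNA detected by SYBR Green after lysis, overnight at room temperature; normalised to 0.29 uM artemisinin and DMSO.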

For assay [32], the system named is ICS. Described as above. Conditions: P. falciparum in erythrocytes, SYBR Green DNA, 72 h. In short, it runs like this:
as §3

The test system of assay [33] is P93_24. The assay is described as above. Particulars: P. falciparum in erythrocytes, SYBR Green DNA, 72 h; at 28.7 µM (top of the series). The method in brief: as §3
For assay [34], the system named is TAB113. The assay is described as above. Particulars: P. falciparum in erythrocytes, SYBR Green DNA, 72 h; at 28.7 µM (top of the series). The method in brief:
as §3

A short description of assay [35]: Drug repurposing screens with cells derived from glioblastoma tumor samples (AID 1345199). Note: nearly all actives have a fitted effect of over 40% in size. Conditions: GBM patient neurospheres viability, ATP luminescence, 48 h; tumour line A. In short, it runs like this:
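Four patient lines of CD133+ GBM neurospheres were screened at several concentrations; hits were retested in those lines plus three slower-growing GBM lines, using 48-hour treatment and ATP-based viability.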
Potency is the fitted concentration of half-maximal effect.

Regarding `CCC(=O)N(c1ccccc1)C1(COC)CCN(CCc2cccs2)CC1`, the Potency in assay [1] was active: 24.3 µM; in assay [2], active: 27.3 µM.

With `CN(CCCl)CCCl`, the Potency in assay [3] is active: 15.8 µM; in assay [4] it was active: 25.1 µM; in [5] it was active: 25.1 µM; in [6], active: 12.6 µM; in assay [7] it was active: 15.8 µM; in assay [8], active: 12.6 µM. In addition, the Potency in assay [9] is active: 15.8 µM; in assay [10], active: 15.8 µM; in assay [11], active: 15.8 µM; in assay [12] it was active: 12.6 µM; in [13] it was active: 12.6 µM; in assay [14] it was active: 50.1 µM. Further, the Potency in assay [15] is active: 12.6 µM; in assay [16], active: 26.6 µM; in assay [17] it was active: 11.9 µM; in assay [18] it was active: 21.1 µM; in assay [19] it was active: 26.6 µM; in assay [20], active: 20.8 µM. The Potency was active: 11.7 µM in assay [21]; active: 13.1 µM in assay [22]; active: 11.7 µM in assay [23]; active: 18.7 µM in assay [24]; active: 18.7 µM in assay [25]; active: 10.5 µM in assay [26]. The Potency in [27] is active: 10.5 µM; in [28] it was active: 18.7 µM; in [29], active: 5.26 µM; in [30] it was active: 14.8 µM; in [32], active: 11.2 µM; in assay [35], active: 25.1 µM. For the same compound, the activity, negative = inhibition in assay [31] was inactive: 11.3%; in assay [33] it was inactive: 2.59%; in assay [34] it was inactive: -26.4%.
